Data on two molecules can be found in patent publication US20120070442A1, “METHODS AND COMPOSITIONS FOR TREATING CANCER” (The Regents of the University of Colorado, a body corporate, priority 2007, published 2012).

The test system of one test is EGFR mRNA. Type of test: cell-based, human. The following applies: 72 hours.
A further test concerns miR-128b. The following applies: 72 hours.
The subject of test [1] is NSCLC cell lines A549, H358, H157, H3255, H520, Colo699. The test can be described thus: MTT growth inhibition of NSCLC cells. Type of test: cell-based, human. To be noted: cetuximab alone, tested NSCLC cell lines, 72 hour incubation. As for the experimental part: Gefitinib was provided by Astra-Zeneca Pharmaceuticals and Cetuximab was provided by ImClone Systems, Inc. (New York, N.Y.). […] Cetuximab stock solution was supplied at a concentration of 2 mg/mL and formulated in a preservative-free solution containing 8.48 mg/mL sodium chloride, 1.88 mg/mL sodium phosphate dibasic heptahydrate, 0.41 mg/mL sodium phosphate monobasic monohydrate, and water. Prior to use, drug stocks were diluted in fresh media. […] Cells were seeded in 96-well flat bottomed plates (Corning Inc., Corning, N.Y.) in 50 μL RPMI media supplemented with 10% heat-inactivated fetal bovine serum followed by transfection with miR-128b mimic or inhibitor (HiPerfect Transfection Reagent, Qiagen, Valencia, Calif.) at least 6 hours after seeding to bring total volume to 100 μL. […] An absorbance at 490 nm of 0.1-0.4 was sought. The optimum numbers of cells seeded to achieve this range were determined to be 5,000 cells for A549, H358, and H157 cell lines, and 5,000 to 7,500 cells for H3255, H520, and Colo699 cell lines. […] Tetrazolium salt was added at a concentration of 0.4 mg/mL to each well following the 72 hour incubation. The plates were then incubated with the salt for 4 hours at 37° C. […] The absorbency of each well was measured using an automated plate reader (Molecular Devices, Sunnyvale, Calif.).

pIC50: −log10 of the molar value. Where two headings read alike, the source gives them in different places. Marks after values point to notes of the source that are not given here. Where only a bound is given, the exact number is not on record here.

Turning to `COc1cc2ncnc(Nc3ccc(F)c(Cl)c3)c2cc1OCCCN1CCOCC1` [Gefitinib, N-(3-chloro-4-fluoro-phenyl)-7-methoxy-6-(3-morpholin-4-ylpropoxy)quinazolin-4-amine], the “EGFR qRT PCR relative to control (1.0)” value with EGFR mRNA (A549, gefitinib <IC50) is on record as 1.3^‡; in the test with EGFR mRNA (A549, gefitinib >IC50), 0.7^γ; with EGFR mRNA (Colo699, gefitinib <IC50) it was 0.9; with EGFR mRNA (Colo699, gefitinib >IC50), 1.2; in the test on EGFR mRNA (H157, gefitinib <IC50), 0.5; with EGFR mRNA (H157, gefitinib >IC50), 0.5. For the same molecule, the “EGFR qRT PCR relative to control (1.0)” value in the test on EGFR mRNA (H358, gefitinib <IC50) came out at 1.3; in the test on EGFR mRNA (H358, gefitinib >IC50) it was 1.6; in the test on EGFR mRNA (H520, gefitinib <IC50), 1.6; with EGFR mRNA (H520, gefitinib >IC50) it was 3.9; with EGFR mRNA (H3255, gefitinib <IC50), 1.1; in the test with EGFR mRNA (H3255, gefitinib >IC50) it was 0.8. Also, the “miR-128b qRT PCR relative to control (1.0)” value was found to be 0.0 with miR-128b (A549, gefitinib <IC50); 6.4 in the test on miR-128b (A549, gefitinib >IC50); 0.0 in the test on miR-128b (Colo699, gefitinib <IC50); 0.0 with miR-128b (Colo699, gefitinib >IC50); 0.1 with miR-128b (H157, gefitinib <IC50); 2.5 in the test with miR-128b (H157, gefitinib >IC50). Moreover, the “miR-128b qRT PCR relative to control (1.0)” value is 1.5 in the test with miR-128b (H358, gefitinib <IC50); 0.5 with miR-128b (H358, gefitinib >IC50); 25.1 with miR-128b (H520, gefitinib <IC50); 157.0 in the test on miR-128b (H520, gefitinib >IC50); 2.7 in the test with miR-128b (H3255, gefitinib <IC50); 30.9 with miR-128b (H3255, gefitinib >IC50).
A word on the pIC50: it is the IC50 on a negative log10 scale, so that one unit is a factor of ten. A higher pIC50 goes with a small IC50. For “cetuximab: Cetuximab provided by ImClone Systems, Inc.; stock solution 2 mg/mL”, the pIC50 in test [1] is less than 7.00.
